Earlier results in patent US11197933B2, “Polysubunit opioid prodrugs resistant to overdose and abuse” (Elysium Therapeutics, Inc., priority 2017, dated 2021).

Tested on: opioid receptors
Conditions: cited from earlier work

C=CCN1CC[C@]23c4c5ccc(O)c4O[C@H]2C(=O)CC[C@@]3(O)[C@H]1C5 [naloxone]
Effect on morphine-like opioid agonists (0.4-0.8 mg intramuscularly or intravenously, in man): prevent or reverse the effects of morphine-like opioid agonists | Block of the effects of 25 mg of heroin (one mg administered intravenously): completely block the effects of 25 mg of heroin
